The values below come from patent US20240018161A1, “MODULATORS OF CYSTIC FIBROSIS TRANSMEMBRANE CONDUCTANCE REGULATOR” (VERTEX PHARMACEUTICALS INCORPORATED, priority 2020, published 2024).

Chains of the proteins cited; added tags and fusions are not shown. A line that says so, or that is headed by a name, gives the form on record, which may keep a tag or linker.
UniProt P13569, with tags, fused parts or gaps DEL508-508: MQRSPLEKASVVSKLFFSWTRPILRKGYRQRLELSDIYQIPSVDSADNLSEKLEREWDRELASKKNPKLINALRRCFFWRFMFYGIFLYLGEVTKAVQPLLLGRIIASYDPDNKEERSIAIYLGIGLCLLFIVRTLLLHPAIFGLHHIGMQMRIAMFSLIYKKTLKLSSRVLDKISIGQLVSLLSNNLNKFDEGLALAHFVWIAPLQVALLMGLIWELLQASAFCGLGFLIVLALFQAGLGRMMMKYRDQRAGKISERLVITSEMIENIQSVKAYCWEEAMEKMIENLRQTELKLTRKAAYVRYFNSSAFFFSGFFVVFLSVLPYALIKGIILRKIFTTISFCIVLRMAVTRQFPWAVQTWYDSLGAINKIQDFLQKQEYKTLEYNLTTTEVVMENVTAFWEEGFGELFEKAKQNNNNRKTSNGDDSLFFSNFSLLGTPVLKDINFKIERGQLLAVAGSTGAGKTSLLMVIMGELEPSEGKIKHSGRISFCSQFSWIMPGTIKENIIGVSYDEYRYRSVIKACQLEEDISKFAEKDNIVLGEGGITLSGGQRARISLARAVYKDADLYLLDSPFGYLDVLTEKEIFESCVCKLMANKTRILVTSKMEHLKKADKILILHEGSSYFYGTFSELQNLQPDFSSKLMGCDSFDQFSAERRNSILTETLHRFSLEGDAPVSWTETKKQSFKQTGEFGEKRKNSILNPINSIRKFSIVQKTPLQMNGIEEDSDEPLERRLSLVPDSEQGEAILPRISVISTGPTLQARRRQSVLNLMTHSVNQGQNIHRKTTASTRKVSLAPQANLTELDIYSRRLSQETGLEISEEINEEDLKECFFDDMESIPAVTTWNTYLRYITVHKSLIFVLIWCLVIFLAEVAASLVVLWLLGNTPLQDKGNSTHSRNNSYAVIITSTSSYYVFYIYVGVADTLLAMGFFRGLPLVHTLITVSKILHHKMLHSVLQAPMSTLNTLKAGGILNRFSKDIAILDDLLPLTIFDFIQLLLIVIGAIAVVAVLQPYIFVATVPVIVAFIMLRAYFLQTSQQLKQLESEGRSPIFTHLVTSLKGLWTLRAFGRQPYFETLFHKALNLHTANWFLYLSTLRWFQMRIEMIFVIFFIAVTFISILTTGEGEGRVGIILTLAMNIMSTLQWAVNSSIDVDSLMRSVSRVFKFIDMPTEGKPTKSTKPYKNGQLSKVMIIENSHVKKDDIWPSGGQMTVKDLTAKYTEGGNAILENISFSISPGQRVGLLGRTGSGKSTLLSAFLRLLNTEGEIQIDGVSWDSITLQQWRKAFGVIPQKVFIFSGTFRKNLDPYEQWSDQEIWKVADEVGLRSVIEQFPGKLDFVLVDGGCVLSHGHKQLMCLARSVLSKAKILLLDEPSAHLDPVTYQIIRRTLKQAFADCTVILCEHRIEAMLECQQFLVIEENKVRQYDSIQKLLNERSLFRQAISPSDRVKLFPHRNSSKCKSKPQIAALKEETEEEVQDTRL

The target of test [1] is T1, CFTR-mediated chloride transport in human intestinal epithelial enteroid cells (Homo sapiens, UniProt P13569). Kind of test: Membrane potential dye, Enteroid Assay A. Type of test: cell-based. The settings on record: for EC50: read-out: Ent. A EC50. The protocol:
(§1) Base medium (ADF+++) consisted of Advanced DMEM/Ham's F12, 2 mM Glutamax, 10 mM HEPES, […] penicillin/streptomycin.
(§2) Bath 1 Buffer consisted of 1 mM MgCl2, 160 mM NaCl, 4.5 mM KCl, 10 mM HEPES, 10 mM Glucose, 2 mM CaCl2.
(§3) Chloride Free Buffer consisted of 1 mM Magnesium Gluconate, 2 mM Calcium Gluconate, 4.5 mM Potassium Gluconate, 160 mM Sodium Gluconate, 10 mM HEPES, 10 mM Glucose.
(§4) Bath1 Dye Solution consisted of Bath 1 Buffer, 0.04% Pluronic F127, 20 μM Methyl Oxonol, 30 μM CaCCinh-A01, 30 μM Chicago Sky Blue.
(§5) Chloride Free Dye Solution consisted of Chloride Free Buffer, 0.04% Pluronic F127, 20 μM Methyl Oxonol, 30 μM CaCCinh-A01, 30 μM Chicago Sky Blue.
(§6) 3. Enteroid Cell Harvesting and Seeding
(§7) Cells were recovered in cell recovery solution, collected by centrifugation at 650 rpm for 5 min at 4° C., resuspended in TryPLE and incubated for 5 min at 37° C. Cells were then collected by centrifugation at 650 rpm for 5 min at 4° C. and resuspended in IEMM containing 10 μM ROCK inhibitor (RI).
4. Membrane Potential Dye, Enteroid Assay A
Briefly, cells were washed 5 times in Bath 1 Buffer. Bath 1 Dye Solution was added, and the cells were incubated for 25 min at room temperature. Following dye incubation, cells were washed 3 times in Chloride Free Dye Solution. Chloride transport was initiated by addition of Chloride Free Dye Stimulation Solution and the fluorescence signal was read for 15 min. […] Chloride transport was then expressed as a percentage of the chloride transport following treatment with 3 μM N-[(6-amino-2-pyridyl)sulfonyl]-6-(3-fluoro-5-isobutoxy-phenyl)-2-[(4S)-2,2,4-trimethylpyrrolidin-1-yl]pyridine-3-carboxamide, 3 μM (R)-1-(2,2-difluorobenzo[d][1,3]dioxol-5-yl)-N-(1-(2,3-dihydroxypropyl)-6-fluoro-2-(1-hydroxy-2-methylpropan-2-yl)-1H-indol-5-yl)cyclopropanecarboxamide and 300 nM acute N-[2,4-bis(1,1-dimethylethyl)-5-hydroxyphenyl]-1,4-dihydro-4-oxoquinoline-3-carboxamide triple combination control (% Activity).

Test [2] addresses T1, CFTR-mediated chloride transport in human intestinal epithelial enteroid cells. As to the kind of experiment: Membrane potential dye, Enteroid Assay B. Type of test: cell-based. The protocol:
as §1, §2, §3, §4, §5, §6, §7
5. Membrane Potential Dye, Enteroid Assay B
Briefly, cells were washed 5 times in Bath 1 Buffer. Bath 1 Dye Solution was added and the cells were incubated for 25 min at room temperature. Following dye incubation, cells were washed 3 times in Chloride Free Dye Solution. Chloride transport was initiated by addition of Chloride Free Dye Stimulation Solution and the fluorescence signal was read for 15 min.

Structures are written as SMILES.

The EC50 is the concentration that produces a half-maximal response. In the case of `Cc1cccc(C)c1-c1cc2nc(n1)NS(=O)(=O)c1cccc(c1)C(=O)N1Cc3cc(C(F)(F)F)ccc3[C@@H](O2)[C@H]1CC(C)C` [Compound 187, (16R,24R)-12-(2,6-dimethylphenyl)-24-(2-methylpropyl)-20-(trifluoromethyl)-15-oxa-8λ^6-thia-1,9,11,25-tetraazapentacyclo[14.7.1.13,7.110,14.017,22]hexacosa-3,5,7(26),10,12,14(25),17,19,21-nonaene-2,8,8-trione], in test [1], the “Ent. A Max Activity (%)” value was “+++ (key: +++ is >600%; ++ is 30-60%; + is <30%)” and the EC50 was below 1000 nM.

With `Cc1cccc(C)c1-c1cc2nc(n1)NS(=O)(=O)c1cccc(c1)C(=O)N1CCN(C3CCC(F)(F)CC3)C[C@H](O2)[C@H]1CC(C)C` [Compound 85, (16S,21R)-18-(4,4-Difluorocyclohexyl)-12-(2,6-dimethylphenyl)-21-(2-methylpropyl)-15-oxa-8λ^6-thia-1,9,11,18,22-pentaazatetracyclo[14.4.1.13,7.110,14]tricosa-3(23),4,6,10(22),11,13-hexaene-2,8,8-trione], in test [1], the “Ent. A Max Activity (%)” value is “+++ (key: +++ is >600%; ++ is 30-60%; + is <30%)” and the half-maximal effective concentration (EC50) is below 1000 nM.

Take `Cc1cccc(C)c1-c1cc2nc(n1)NS(=O)(=O)c1cccc(c1)C(=O)N1Cc3cc(C(F)(F)F)ccc3[C@H](O2)[C@H]1CC(C)C` [Compound 186, (16S,24R)-12-(2,6-Dimethylphenyl)-24-(2-methylpropyl)-20-(trifluoromethyl)-15-oxa-8λ^6-thia-1,9,11,25-tetraazapentacyclo[14.7.1.13,7.110,14.017,22]hexacosa-3,5,7(26),10,12,14(25),17,19,21-nonaene-2,8,8-trione]: the “Ent. B Max Activity (%)” value in test [2] was “+++ (+++ is >600%)”. Also, in test [2] (read-out: Ent. B EC50), the EC50 was below 1000 nM. In addition, in test [1], the “Ent. A Max Activity (%)” value is “+++ (key: +++ is >600%; ++ is 30-60%; + is <30%)” and the EC50 was below 1000 nM.
